Experimental data from patent US5593656A, “Metal-binding targeted polypeptide constructs” (Cytogen Corporation, priority 1995, dated 1997).
Read-outs that look alike come from different tables or passages of the source.

Test system: HT-29 colon carcinoma xenograft tumors
Conditions: Tc-99m labeled, i.v.; for Average accumulation in HT-29 tumors (tumor localization percentage): 22 hours after injection; for Organ to Blood Ratio, Tumor (tumor:blood ratio) / Percent Of Injected Dose, Tumor: HT-29 tumor; for Percent Of Injected Dose, Blood / Percent Of Injected Dose, Kidney-L / Percent Of Injected Dose, Kidney-R / Percent Of Injected Dose, Liver / Percent Of Injected Dose, Lung / Percent Of Injected Dose, Muscle / Percent Of Injected Dose, Pancreas / Percent Of Injected Dose, Spleen: per gram of organ; for Percent Of Injected Dose, Tumor: per gram

Substance	Organ to Blood Ratio, Blood (3 HR)	Organ to Blood Ratio, Kidney-L (3 HR)	Organ to Blood Ratio, Kidney-R (3 HR)	Organ to Blood Ratio, Liver (3 HR)	Organ to Blood Ratio, Lung (3 HR)	Organ to Blood Ratio, Muscle (3 HR)	Organ to Blood Ratio, Pancreas (3 HR)	Organ to Blood Ratio, Spleen (3 HR)	Organ to Blood Ratio, Blood (22 HR)	Organ to Blood Ratio, Kidney-L (22 HR)	Organ to Blood Ratio, Kidney-R (22 HR)	Organ to Blood Ratio, Liver (22 HR)	Organ to Blood Ratio, Lung (22 HR)	Organ to Blood Ratio, Muscle (22 HR)	Organ to Blood Ratio, Pancreas (22 HR)	Organ to Blood Ratio, Spleen (22 HR)	Average accumulation in HT-29 tumors (tumor localization percentage)	Organ to Blood Ratio, Tumor (tumor:blood ratio) (3 HR)	Organ to Blood Ratio, Tumor (tumor:blood ratio) (22 HR)	Percent Of Injected Dose, Blood (3 HR)	other results
Benzoic acid bis-thiosemicarbazide derived from N-acetyl-Neuromedin C-hydrazide [Compound 6]	1.00	9.24	8.51	0.76	0.87	0.15	0.25	0.72	1.00	25.44	24.22	1.45	3.80	0.45	0.70	2.40	0.38 % ID/g	0.62	2.25	1.30%	Percent Of Injected Dose, Kidney-L (3 HR): 11.34%; Percent Of Injected Dose, Kidney-R (3 HR): 10.24%; Percent Of Injected Dose, Liver (3 HR): 0.92%; Percent Of Injected Dose, Lung (3 HR): 1.08%; Percent Of Injected Dose, Muscle (3 HR): 0.19%; Percent Of Injected Dose, Pancreas (3 HR): 0.32%; Percent Of Injected Dose, Spleen (3 HR): 0.86%; Percent Of Injected Dose, Blood (22 HR): 0.24%; Percent Of Injected Dose, Kidney-L (22 HR): 6.02%; Percent Of Injected Dose, Kidney-R (22 HR): 5.73%; Percent Of Injected Dose, Liver (22 HR): 0.34%; Percent Of Injected Dose, Lung (22 HR): 0.93%; Percent Of Injected Dose, Muscle (22 HR): 0.11%; Percent Of Injected Dose, Pancreas (22 HR): 0.17%; Percent Of Injected Dose, Spleen (22 HR): 0.59%; Percent Of Injected Dose, Tumor (3 HR): 0.78%; Percent Of Injected Dose, Tumor (22 HR): 0.54%
Benzoic acid bis-thiourea derived from Neuromedin-C [Compound 3]	1.00	7.01	6.86	0.42	0.76	0.14	0.23	0.34	1.00	9.73	9.84	0.61	1.07	0.22	0.50	0.69	0.51 % ID/g	0.71	2.0	1.17%	Percent Of Injected Dose, Kidney-L (3 HR): 8.25%; Percent Of Injected Dose, Kidney-R (3 HR): 8.03%; Percent Of Injected Dose, Liver (3 HR): 0.49%; Percent Of Injected Dose, Lung (3 HR): 0.90%; Percent Of Injected Dose, Muscle (3 HR): 0.16%; Percent Of Injected Dose, Pancreas (3 HR): 0.27%; Percent Of Injected Dose, Spleen (3 HR): 0.40%; Percent Of Injected Dose, Blood (22 HR): 0.26%; Percent Of Injected Dose, Kidney-L (22 HR): 2.51%; Percent Of Injected Dose, Kidney-R (22 HR): 2.54%; Percent Of Injected Dose, Liver (22 HR): 0.16%; Percent Of Injected Dose, Lung (22 HR): 0.27%; Percent Of Injected Dose, Muscle (22 HR): 0.06%; Percent Of Injected Dose, Pancreas (22 HR): 0.13%; Percent Of Injected Dose, Spleen (22 HR): 0.18%; Percent Of Injected Dose, Tumor (3 HR): 0.83%; Percent Of Injected Dose, Tumor (22 HR): 0.51%
